scFv variants of Ab-14 (heavy chain) against a SARS-CoV-2 spike peptide

Values reported by Li et al. 2023, doi:10.1038/s41467-023-39022-2 (FLAb copy).

Target: peptide PDVDLGDISGINAS, taken from heptad repeat 2 (HR2) of SARS-CoV-2 spike.

Ab-14 is the parent antibody, in scFv form: VH, then a 15-residue (Gly4Ser)3 linker, then VL. The light chain is unchanged in all variants.
VH: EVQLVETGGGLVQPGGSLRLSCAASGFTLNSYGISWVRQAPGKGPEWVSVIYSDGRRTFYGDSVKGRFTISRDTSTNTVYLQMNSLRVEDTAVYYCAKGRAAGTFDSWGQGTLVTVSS
VL: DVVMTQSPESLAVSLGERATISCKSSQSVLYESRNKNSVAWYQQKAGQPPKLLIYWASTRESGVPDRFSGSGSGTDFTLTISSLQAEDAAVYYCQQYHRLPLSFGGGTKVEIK

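The starting antibody came from a phage panning campaign against this peptide. This is the validation round: designs drawn from the data on random variants, tested in the same kind of assay. Group labels follow the data file (Ctrl: baseline library sampled from a position-specific scoring matrix, with some repeated check sequences; Rand: our label for a block that the file lists under HC and that is probably the random mutants of the ten best first-round binders; En: ensemble of fine-tuned language models; GP: Gaussian process model; GPLM: also part of the Gaussian process libraries; HC: hill climbing; Gen: genetic algorithm; Gibbs: Gibbs sampling; a sequence that several methods proposed may carry one label only). The assay is AlphaSeq: two haploid yeast populations carry antibody and antigen on their surface. The frequency of each diploid, read from paired DNA barcodes, reflects how well the two displayed proteins bind. The ratio of observed to expected reads was calibrated, replicate by replicate, on BCL2-family standards whose Kd was known from biolayer interferometry. Each pool was mated in six replicate cultures.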

The parent's heavy chain CDRs are GFTLNSYGIS, VIYSDGRRTFYGDSVK, GRAAGTFDS; each variant's own CDRs replace them letter for letter. The Kd shown is the geometric mean over detected replicates; a lower Kd is a better binder. "nd" means that the variant was in the library but no mating with the target was seen in any replicate; the authors take this as a sign of poor binding, and no number exists. The parent sequence was in this pool as ten entries: three were never detected, three once, and four in most replicates, with averages from 2.2 nM to 240 nM. The authors' rule: three or more of the six replicates give a measured affinity, fewer mean a poor binder. Empty control strains, which show no peptide, gave a signal in 1% of pairings with all heavy chain designs; the median was 120 nM and 95% of these signals were weaker than 7.0 nM. No background was subtracted. The range of this assay differs from that of the first round, and the authors advise against merging the two.

| CDR-H1 | CDR-H2 | CDR-H3 | group | apparent Kd | detected |
|---|---|---|---|---|---|
| LFTLNDEFIS | VIYSDGRKTFYGCSVK | GRAALTFIS | Rand | nd | 0/6 |
| GFTLLSYGIS | VIYSDGRRTFYQDSVK | GRAAGTFDL | Ctrl | nd | 0/6 |
| GFTLNSYGIS | VIYSDGRRTFYSDSVK | GAAAGTFKS | Ctrl | nd | 0/6 |
| GFTMNSYGIS | VIYSDGERTFYGDRVK | RRAAGTFDS | Ctrl | 2.9 nM | 1/6 |
| GFTLNEYGIS | VIYSDGRRTFYKDSVK | GRVAGTFDS | GPLM_HC | 65 pM | 3/6 |
| GFNLNEYGIS | VIYADGQRTFYADSVK | GEVAGTFDV | En_HC | 1.8 nM | 6/6 |
| GFELNEYGIS | VIYSDGRRTFYADSVK | GRNAGTFDS | GP_Gen | 1.6 nM | 6/6 |
| GFDLNEYGIS | VIYADGVRTFYTDSVK | GQNAGTFDV | En_HC | 91 pM | 6/6 |
| FWTLNEYGIS | VIYSDGRRTFYGDSVK | GRAKVTFDQ | Rand | nd | 0/6 |
| SFTLNSYGIS | VIYADGRRTFYGDSVK | GQAAGTFDL | GP_Gibbs | 22 nM | 6/6 |
| PFSLNSYGIS | VIYSDGRRTFYGDSVK | GKTAGTFDS | GP_Gibbs | nd | 0/6 |
| GKDLEEYGIS | VIYADGRRTSYIENVK | DGLNDGTFV | En_Gibbs | nd | 0/6 |
| GKSIDEYGIS | VIYADGMRKEYTDSVK | GQFDDAMDL | En_Gibbs | nd | 0/6 |
| GESLNSYGVS | VIYSDGRRTFYGDSVK | GRAAGTFVY | Ctrl | nd | 0/6 |
| GFQLNEYGIS | VIYSDGRRTFYGDSVK | GREAGTFDV | GP_HC | 910 pM | 6/6 |
| GFTLNDYGIS | VIYSDGRRTFYIDSVK | GRHAGTFWS | GP_HC | nd | 0/6 |
| GFDLNEYGIS | VIYADGKRTFYADDVK | GEVAGTFDL | En_HC | 1.6 nM | 6/6 |
| GFDLNEYGVS | VIYADGSRASYADKVK | GLNFGQLIV | En_Gibbs | nd | 0/6 |
| GFTLNSYGIS | VIYSDGMRTFYSDSVK | GKAAGTFDS | GPLM_Gen | 2.6 nM | 3/6 |
| GFELNSYGIS | VIYSDGRRTFYIDSVK | GRTAGTFDA | GP_Gibbs | nd | 0/6 |
| MFELNSYGIS | VIYADGRRTFYGDSVK | GKAAGTFDS | GP_Gen | 24 nM | 3/6 |
| GFDVNEYGIS | VIYADGVRRTYQDAVK | GNLSGVVDV | En_Gibbs | nd | 0/6 |
| GFTLNSYGIS | VIYSDGRRTFYGDSVK | GRTAGTFIS | Ctrl | nd | 0/6 |
| GFSLNSYGIS | VIYADGRRTFYGDSVK | GKAAGTFDQ | GPLM_Gibbs | 6.5 nM | 6/6 |
| GFDLNEYGIS | VIYADGRRTFYSDSVK | GQTGGTFDL | En_HC | 19 nM | 6/6 |
| GFNLNSYGIS | VIYSDGRRTAYGDSVK | GREAGTFDS | Ctrl | 1.5 nM | 6/6 |
| TFQLNSYGIS | VIYSDGRRTFNGDSVK | GQAAGTFDS | Ctrl | nd | 0/6 |
| GFDLNEYGIS | VIYSDGRRTFYGDAVK | GRAAGTFDV | GP_HC | 3.9 nM | 6/6 |
| GFNLAEYGIS | VIYADGSRVAYADSVK | GLNGKIGDQ | En_Gibbs | nd | 0/6 |
| GFTLNSYGIS | VIYSDGKRTFYGDSVK | GRNAGTFDT | GPLM_Gibbs | 2.0 nM | 6/6 |
| GFDLNEYGIS | VIYADGRRTAYKDSVK | GEAAGTFDS | En_HC | 370 pM | 6/6 |
| GFDLNEYGIS | VIYADGVRTAYTDSVK | GENAGTFDV | En_Gen | 1.1 nM | 6/6 |
| GFSLESYGIS | VIYSDGRRTEYHDSVK | GRAAGTFDT | Ctrl | 1.6 nM | 2/6 |
| GFDLNEYGIS | VIYADGRRTFYSDSVK | GEHAGTFDV | En_HC | 310 pM | 6/6 |
| GFDLNEYGIS | VIYADGRRTFYDDSVK | GQNAGTFDL | En_HC | 460 pM | 6/6 |
| GFDVLEYGIS | VIYADGRRVAYAKDVK | GMNFDFIVV | En_Gibbs | nd | 0/6 |
| GFDLNEYGIS | VIYADGMRTAYVDSVK | GNVAGTFDM | En_Gen | 1.5 nM | 6/6 |

Second part, the sequence after the result:

| apparent Kd | detected | CDR-H1 | CDR-H2 | CDR-H3 | group |
|---|---|---|---|---|---|
| 2.7 nM | 5/6 | GFDLNEYGIS | VIYADGRRTQYIDSVK | GEVAGTFDQ | En_HC |
| 220 pM | 6/6 | GFDLNEYGIS | VIYADGKRTAYTDSVK | GSNAGTFDV | En_Gen |
| 37 nM | 4/6 | GFTLNSYGIS | VIYSDGKRTFYGDKVK | GRVEGTFDS | Ctrl |
| 42 nM | 2/6 | GFTLNSYGIS | VIYSDGRRTFYNDSVK | GRAAGTFMW | Ctrl |
| 90 nM | 6/6 | GFTINSYGIS | VIYSDGRRTFYGDSVK | GSAAGTFDS | Ctrl |
| 8.7 nM | 6/6 | GFNLNSYGIS | VIYSDGRRTFYVDSVK | GRNAGTFDS | GP_Gen |
| 220 nM | 4/6 | GFSLNEYGIS | VIYSDGRRTFYSDAVK | GRCAGTFDS | GP_HC |
| 350 pM | 5/6 | GWDLEHYGIS | VIYADGKRSGYSNAVK | GQQAGTFNT | En_Gibbs |
| 3.6 µM | 1/6 | GFSINEYGIS | VIYADGMRTAYVESVK | GTIDENFNT | En_Gibbs |
| nd | 0/6 | GFTLNSYGIS | VIYSDGHRTFYGDSVK | GRAAATFDS | Ctrl |
| 72 nM | 3/6 | GFTLNSYGIS | VIYADGRRTFYGDSVK | GQAAGTFKL | GPLM_HC |
| nd | 0/6 | GEDLMEYGIS | VIYADGRRFSYIDDVK | GNSTGFLDV | En_Gibbs |
| 7.5 nM | 1/6 | GFDLNEYGIS | VIYADGRRTFYSDSVK | GENAGTFIQ | En_HC |
| nd | 0/6 | GFTLDSYGIS | VIYSDGRRTFYADSVK | GRAAGTFPS | GP_HC |
| 1.6 nM | 6/6 | GFDLNEYGIS | VIYADGRRTFYADSVK | GNTAGTFIS | En_HC |
| nd | 0/6 | GFKLNSYGIS | VIYSDGRRTFYIDSVK | GRNAGTFDS | GP_Gibbs |
| 1.3 nM | 6/6 | GFDLNSYGIS | VIYSDGKRTFYGDSVK | GRWAGTFDS | GP_Gen |
| 590 pM | 6/6 | GFDLNEYGIS | VIYADGSRTAYSDSVK | GENAGTFDL | En_Gen |
| nd | 0/6 | GFTLDSYGIS | VIYSDGRRTFYGDSVK | GRAAGTFCV | GP_HC |
| 160 pM | 6/6 | GFDLNEYGIS | VIYADGKRTAYADSVK | GQLAGTFDT | En_HC |
| 1.8 nM | 6/6 | GFTLNSYGIS | VIYSDGRRTFYGDRVK | GNEAGTFDT | GP_Gibbs |
| 1.6 nM | 6/6 | GFSLNEYGIS | VIYSDGRRTWYGDSVK | GRTAGTFDS | GPLM_Gen |
| 380 pM | 6/6 | GFDLNEYGIS | VIYADGKRTAYADSVK | GTVAGTFDL | En_Gen |
| nd | 0/6 | GFTLNSYGIS | VIYSDGRRGFYDDSVK | GQLAGTFDS | Rand |
| nd | 0/6 | GFDLNEYGIS | VIYADGVRTAYADDVK | GGNAGTFDL | En_Gen |
| nd | 0/6 | GKKLDEYGIS | VIYADGVRSHYAESVK | GQHGTYGVA | En_Gibbs |
| 14 nM | 2/6 | GFDLNCYGIS | VIYSDGRRTFYGDSVK | GEAAGTFDK | GP_Gibbs |
| 100 pM | 6/6 | GFDLDEYGIS | VIYADGMRTSYADSVK | GNVAGTFDV | En_Gen |
| 3.7 nM | 6/6 | GFSLNSYGIS | VIYSDGRRTAYSDSVK | GRAGGTFDS | GP_HC |
| 7.1 nM | 6/6 | GFSLNSYGIS | VIYSDGRRTWYGDSVK | GQAAGTFDS | GPLM_Gen |
| nd | 0/6 | GFTLNSQGIS | VIYSDGRRTFYSDNVK | GTAAGTFSS | Ctrl |
| 1.9 nM | 6/6 | GFDLNEYGIS | VIYADGRRTFYSDSVK | GAMAGTFDQ | En_HC |
| nd | 0/6 | GFTLNEYGIS | VIYSDGVRTFYGDRVK | GRAAGAFDS | Ctrl |
| 2.8 nM | 6/6 | GFTLNSYGIS | VIYSDGKRTFYTDSVK | GQTAGTFDS | GP_Gibbs |
| nd | 0/6 | GMNLEEYGIS | VIYADGMRTAAVDSVK | GDQSGTVVY | En_Gibbs |
| nd | 0/6 | GFYLDSYGIS | VIRSDGRRTFYGDSVK | GRAAGTALS | Rand |
| 890 pM | 6/6 | GFSLNSYGIS | VIYSDGIRTFYSDSVK | GRAAGTFDS | Ctrl |

The first 7 variants above that were never detected:

CDR-H1,CDR-H2,CDR-H3,group,apparent Kd,detected
LFTLNDEFIS,VIYSDGRKTFYGCSVK,GRAALTFIS,Rand,nd,0/6
GFTLLSYGIS,VIYSDGRRTFYQDSVK,GRAAGTFDL,Ctrl,nd,0/6
GFTLNSYGIS,VIYSDGRRTFYSDSVK,GAAAGTFKS,Ctrl,nd,0/6
FWTLNEYGIS,VIYSDGRRTFYGDSVK,GRAKVTFDQ,Rand,nd,0/6
PFSLNSYGIS,VIYSDGRRTFYGDSVK,GKTAGTFDS,GP_Gibbs,nd,0/6
GKDLEEYGIS,VIYADGRRTSYIENVK,DGLNDGTFV,En_Gibbs,nd,0/6
GKSIDEYGIS,VIYADGMRKEYTDSVK,GQFDDAMDL,En_Gibbs,nd,0/6